Test results: patent US5741491A, “Medicinal composition for diabetes” (Isotechnika Incorporated, priority 1995, dated 1998)

By UniProt entry, the sequences of proteins in these tests, tags left out. Residues count along the entry.
UniProt P23739, 1014-1841 limits assumed: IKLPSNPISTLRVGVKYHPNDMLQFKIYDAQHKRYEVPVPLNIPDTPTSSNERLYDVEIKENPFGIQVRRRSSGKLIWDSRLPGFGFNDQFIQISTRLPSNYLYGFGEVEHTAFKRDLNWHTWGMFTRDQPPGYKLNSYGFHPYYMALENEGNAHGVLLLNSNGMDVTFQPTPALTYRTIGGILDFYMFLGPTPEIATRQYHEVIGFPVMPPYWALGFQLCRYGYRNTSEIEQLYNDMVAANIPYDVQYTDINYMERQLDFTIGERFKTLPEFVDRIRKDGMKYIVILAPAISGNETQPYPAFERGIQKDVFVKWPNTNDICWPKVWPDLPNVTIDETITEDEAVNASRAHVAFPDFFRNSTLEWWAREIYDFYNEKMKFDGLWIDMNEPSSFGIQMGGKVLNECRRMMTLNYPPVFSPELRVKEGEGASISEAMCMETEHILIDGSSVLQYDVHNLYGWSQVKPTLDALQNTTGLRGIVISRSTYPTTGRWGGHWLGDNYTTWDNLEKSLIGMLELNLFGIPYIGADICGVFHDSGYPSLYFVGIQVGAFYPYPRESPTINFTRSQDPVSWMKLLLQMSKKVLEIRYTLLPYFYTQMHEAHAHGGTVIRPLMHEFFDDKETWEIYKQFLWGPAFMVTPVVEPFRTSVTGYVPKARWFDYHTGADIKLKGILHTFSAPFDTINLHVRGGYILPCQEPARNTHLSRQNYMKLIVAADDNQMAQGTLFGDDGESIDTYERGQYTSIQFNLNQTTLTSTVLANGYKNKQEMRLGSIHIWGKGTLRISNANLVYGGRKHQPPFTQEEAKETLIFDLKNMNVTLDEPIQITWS
UniProt P23739, 1-1013 partner limits assumed: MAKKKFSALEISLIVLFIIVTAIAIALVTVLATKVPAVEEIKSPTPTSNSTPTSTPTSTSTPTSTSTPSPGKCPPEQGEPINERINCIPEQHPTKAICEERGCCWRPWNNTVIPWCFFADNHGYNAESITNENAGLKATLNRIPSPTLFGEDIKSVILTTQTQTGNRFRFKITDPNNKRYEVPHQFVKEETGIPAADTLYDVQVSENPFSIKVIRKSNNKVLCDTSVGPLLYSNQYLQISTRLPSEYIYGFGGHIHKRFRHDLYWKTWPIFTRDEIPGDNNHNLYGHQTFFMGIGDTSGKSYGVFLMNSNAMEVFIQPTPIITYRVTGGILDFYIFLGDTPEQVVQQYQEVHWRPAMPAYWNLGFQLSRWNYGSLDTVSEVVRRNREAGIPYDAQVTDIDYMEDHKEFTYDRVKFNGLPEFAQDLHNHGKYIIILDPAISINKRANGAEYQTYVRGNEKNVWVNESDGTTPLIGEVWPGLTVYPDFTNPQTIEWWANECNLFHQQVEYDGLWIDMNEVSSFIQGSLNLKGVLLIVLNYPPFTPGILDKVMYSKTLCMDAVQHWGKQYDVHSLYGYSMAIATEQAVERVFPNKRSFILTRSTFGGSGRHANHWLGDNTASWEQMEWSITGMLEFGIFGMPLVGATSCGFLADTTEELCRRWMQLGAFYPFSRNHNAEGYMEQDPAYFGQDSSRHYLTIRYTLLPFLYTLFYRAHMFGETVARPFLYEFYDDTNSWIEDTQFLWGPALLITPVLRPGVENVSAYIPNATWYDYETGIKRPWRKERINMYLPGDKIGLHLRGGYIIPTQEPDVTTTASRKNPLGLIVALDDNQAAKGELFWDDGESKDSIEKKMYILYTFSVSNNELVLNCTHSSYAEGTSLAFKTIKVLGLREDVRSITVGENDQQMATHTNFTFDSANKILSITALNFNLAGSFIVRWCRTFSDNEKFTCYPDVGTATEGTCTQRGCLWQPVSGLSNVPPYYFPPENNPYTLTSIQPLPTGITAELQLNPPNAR

Molecular target: T1, Sucrase (rat small intestine) (Rattus norvegicus, UniProt P23739)
T1 construct: Sucrase (rat small intestine); from tissue; host or cells: rat small intestine
Assay: Enzyme inhibition: sucrase
Type: biochemical

C[C@H]1O[C@H](O[C@H]2[C@H](O)[C@@H](O)[C@@H](O[C@H]3[C@H](O)[C@@H](O)C(O)O[C@@H]3CO)O[C@@H]2CO)[C@H](O)[C@@H](O)[C@@H]1N[C@H]1C=C(CO)[C@@H](O)[C@H](O)[C@H]1O (stereo partly shown) [acarbose]
IC50: 6.51 µM
